Values quoted from earlier work, collected in PMC5700124 (Scientific Reports, 2017).

Tested on: translocator protein (TSPO)
Parameters: method as in Hilmer et al.[39]
Conditions: 0.1 ng/kg i.v.; ref Hilmer et al.[39]; cited from earlier work

For lipopolysaccharide [LPS], the “increase of [^11C] PBR28 fP” value is listed as 38%.
